{
  "source": "paper PMC4869912",
  "origin": "cited, not measured here",
  "biological_target": "MLCK peptide (MLCKp) 15-aa CaM-binding domain fragment (UniProt Q15746)",
  "note": "pKd: −log10 of the molar value.",
  "data": [
    {"substance": "Calmodulin (from UniProt P0DP23)", "values": [
      {"measurement": "pKd", "value": 11.22}
    ]}
  ]
}
